The target in this test is D(2) dopamine receptor (Rattus norvegicus, UniProt P61169). Nature of the test: Displacement of [3H]raclopride from rat dopamine D2 receptor.

Protein sequences, listed by entry. Tags and fused reporters are not part of them.
UniProt P61169, whole entry: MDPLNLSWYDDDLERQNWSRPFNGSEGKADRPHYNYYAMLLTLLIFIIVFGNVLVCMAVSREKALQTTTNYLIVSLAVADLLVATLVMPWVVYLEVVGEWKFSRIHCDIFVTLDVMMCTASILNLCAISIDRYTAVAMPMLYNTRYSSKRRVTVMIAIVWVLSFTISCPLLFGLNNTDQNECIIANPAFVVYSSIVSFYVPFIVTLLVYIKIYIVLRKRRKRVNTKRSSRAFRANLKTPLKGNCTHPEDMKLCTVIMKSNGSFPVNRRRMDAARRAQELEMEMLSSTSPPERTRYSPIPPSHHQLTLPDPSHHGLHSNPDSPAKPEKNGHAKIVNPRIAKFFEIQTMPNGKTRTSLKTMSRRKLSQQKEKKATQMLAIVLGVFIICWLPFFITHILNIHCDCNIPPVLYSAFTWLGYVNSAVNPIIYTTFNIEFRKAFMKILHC

As a reminder, the Ki is the dissociation constant of the complex between target and ligand, obtained from inhibition or displacement. `CN1CCc2cccc3c2[C@H]1Cc1ccc(O)c(O)c1-3` [APOMORPHINE] yielded an inhibition constant Ki of 13 nM. In other words, the double-digit nanomolar range.

The values above are taken from ChEMBL document CHEMBL1141452, “Advances in development of dopaminergic aporphinoids” (J Med Chem, 2007).
